The test deals with T1, MAO-A (Homo sapiens, UniProt P21397).
T1 construct: gene MAOA
The test is described as follows: fluorimetric H2O2 detection, kinetic, Ex/Em […] nm, […] min. The format is biochemical. Conditions: read-out: % inhibition at 10 nM.

Sequences of proteins named here, by UniProt entry; tags and fusion partners are left off.
UniProt P21397, whole entry: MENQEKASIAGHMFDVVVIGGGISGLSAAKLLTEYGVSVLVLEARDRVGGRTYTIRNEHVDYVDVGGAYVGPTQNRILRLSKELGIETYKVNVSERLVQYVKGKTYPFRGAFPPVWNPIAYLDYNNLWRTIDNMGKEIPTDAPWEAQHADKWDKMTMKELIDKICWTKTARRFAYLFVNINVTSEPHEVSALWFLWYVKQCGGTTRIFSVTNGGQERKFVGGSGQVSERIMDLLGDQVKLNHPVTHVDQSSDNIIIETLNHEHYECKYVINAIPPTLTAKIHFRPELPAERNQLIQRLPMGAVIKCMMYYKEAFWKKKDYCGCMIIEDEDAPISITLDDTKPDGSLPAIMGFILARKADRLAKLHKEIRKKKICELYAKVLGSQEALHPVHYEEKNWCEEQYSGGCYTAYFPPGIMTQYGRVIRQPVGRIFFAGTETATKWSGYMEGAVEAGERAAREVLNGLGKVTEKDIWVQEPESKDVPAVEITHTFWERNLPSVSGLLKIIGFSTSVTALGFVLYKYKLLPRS

As usually defined, the inhibition is the relative decrease from the control value, in per cent. As to `C#CCN(C)CCCOc1ccc(Cl)cc1Cl` [clorgyline], the inhibition at 0.01 µM amounted to 45%.

Values taken from paper PMC9855794, “The Photobiomodulation of MAO-A Affects the Contractile Activity of Smooth Muscle Gastric Tissues” (Biomolecules, 2022).
